Experimental data published in patent US11353448B2, “Methods and compositions for quantifying metabolites and proteins from single cells” (CALIFORNIA INSTITUTE OF TECHNOLOGY, priority 2015, dated 2022).

System: U87EGFRvIII cells
Settings: upon drug treatment
Description: A multiplex assay incorporating the glutamine uptake assay according to embodiments of the present invention was performed using a SCBC platform in U87 human glioblastoma cells having amplified epidermal growth factor receptor (EGFR) expression.
U87/EGFRV3 cells were provided by Prof. Paul S. Mischel (UCSD, San Diego, U.S.A.) and cultured in Dulbecco's modified eagle media (DMEM, Gibco, ThermoFisher Scientific, Grand Island, N.Y., U.S.A.) supplemented with 10% of fetal bovine serum (Thermo Fisher Scientific) and 100 U/mL of penicillin and streptomycin in a humidified 5% CO2 (v/v) incubator, at 37° C.
In order to better understand the integrated single cell metabolic/proteomic data, a simplified semi-quantitative metabolic model (FIG. 16A) was developed. The focus of this model includes the glycolysis pathway and the TCA cycle, which cover the major contributors of cellular energy generation. Glucose is used by cells for many tasks, but by combining the measurement of glucose uptake with measurements of those enzymes that process glucose for energy production and lactate production, an estimation may be made of the contributions of glucose to glycolysis and to the TCA cycle (FIGS. 16A-16B). It assumed that each glucose molecule consumed yields 8 ATP equivalents through glycolysis, and an additional 22 ATP equivalents through the TCA cycle. […]

Compound: C#Cc1cccc(Nc2ncnc3cc(OCCOC)c(OCCOC)cc23)c1 [erlotinib]
- energy frustration index (EFI): increase
- redox frustration index (RFI): increase
